Data as given in US20070134261A1, “Effectors of innate immunity” (priority 2001, published 2007).

Assays:
RAW 264.7 cells = test: Atlas polynucleotide arrays of RAW 264.7 cells stimulated with LPS, LTA or CpG DNA (Tables 57, 58); details: S. typhimurium LPS 100 ng/ml, S. aureus LTA 1 μg/ml, CpG 1 μM; 4 h
[1] = system: human A549 epithelial cells; test: Resgen Human cDNA arrays (PRHU03-S3) of A549 cells treated with peptide (Tables 21-26)

In the case of “5′-TCATGACGTTCCTGACGTT-3′ (chemistry not given here) [CpG]”, the “Ratio to Contrl, CACCC Box-binding protein BKLF (U36340)” value (RAW 264.7 cells) is reported as 7, the “Ratio to Contrl, CD7 (D10329)” value (RAW 264.7 cells) is reported as 2 and the “Ratio to Contrl, CD40L receptor (M83312)” value (RAW 264.7 cells) is reported as 57. The “Ratio to Contrl, CRE-BPI (S76657)” value (RAW 264.7 cells) was 7, the “Ratio to Contrl, Cyclin A1 (X84311)” value (RAW 264.7 cells) was 2 and the “Ratio to Contrl, Cyclin G2 (U95826)” value (RAW 264.7 cells) was 2. The “Ratio to Contrl, Elk-1 (X87257)” value (RAW 264.7 cells) was 1, the “Ratio to Contrl, Fas 1 receptor (M83649)” value (RAW 264.7 cells) was 42 and the “Ratio to Contrl, H-ras proto-oncopolynucleotide (Z50013)” value (RAW 264.7 cells) was 5. For the same compound, the “Ratio to Contrl, ICAM-1 (X52264)” value (RAW 264.7 cells) was 9, the “Ratio to Contrl, Jun-B (J03236)” value (RAW 264.7 cells) was 14 and the “Ratio to Contrl, Jun-D (J05205)” value (RAW 264.7 cells) was 20. For the same compound, the “Ratio to Contrl, Leukemia inhibitory factor (LIF) (X06381)” value (RAW 264.7 cells) was 102, the “Ratio to Contrl, Mad related protein (U60530)” value (RAW 264.7 cells) was 3 and the “Ratio to Contrl, Nur77 (J04113)” value (RAW 264.7 cells) was 3. The “Ratio to Contrl, Pim-1 (M13945)” value (RAW 264.7 cells) was 2, the “Ratio to Contrl, Protease nexin 1 (PN-1) (X70296)” value (RAW 264.7 cells) was 22 and the “Ratio to Contrl, hepatocyte growth factor (X72307)” value (RAW 264.7 cells) was 1.0. For the same compound, the “Ratio to Contrl, hepatoma transmembrane kinase ligand (L38847)” value (RAW 264.7 cells) was 1.0, the “Ratio to Contrl, interferon inducible protein 1 (U19119)” value (RAW 264.7 cells) was 4 and the “Ratio to Contrl, thrombopoietin (L34169)” value (RAW 264.7 cells) was 0.5. The “Ratio to Control, B-myb (X70472)” value (RAW 264.7 cells) was 0.5, the “Ratio to Control, CD14 (M34510)” value (RAW 264.7 cells) was 1.4 and the “Ratio to Control, CD18 (X14951)” value (RAW 264.7 cells) was 2. For the same compound, the “Ratio to Control, DNA polymerase (Z21848)” value (RAW 264.7 cells) was 0.6, the “Ratio to Control, I-κB (alpha subunit) (U36277)” value (RAW 264.7 cells) was 2.7 and the “Ratio to Control, ICE (L28095)” value (RAW 264.7 cells) was 50. The “Ratio to Control, IL-1β (M15131)” value (RAW 264.7 cells) was 55, the “Ratio to Control, IL-15 (U14332)” value (RAW 264.7 cells) was 12 and the “Ratio to Control, MAPKAP-2 (X76850)” value (RAW 264.7 cells) was 2.5. For the same compound, the “Ratio to Control, MIP-1α (X12531)” value (RAW 264.7 cells) was 26, the “Ratio to Control, MIP-1β (M35590)” value (RAW 264.7 cells) was 58 and the “Ratio to Control, MIP-2α (X53798)” value (RAW 264.7 cells) was 78. The “Ratio to Control, NF-2 (X60671)” value (RAW 264.7 cells) was 2.8, the “Ratio to Control, NF-κB (M57999)” value (RAW 264.7 cells) was 3.4 and the “Ratio to Control, Stat 1 (U06924)” value (RAW 264.7 cells) was 3.2. For the same compound, the “Ratio to Control, TGFβ (X57413)” value (RAW 264.7 cells) was 28, the “Ratio to Control, TNFR1 (M59378)” value (RAW 264.7 cells) was 11 and the “Ratio to Control, TRAIL (U37522)” value (RAW 264.7 cells) was 6. For the same compound, the “Ratio to Control, c-Fms (X68932)” value (RAW 264.7 cells) was 0.5, the “Ratio to Control, c-rel proto-oncopolynucleotide (X15842)” value (RAW 264.7 cells) was 15 and the “Ratio to Control, iNOS (M87039)” value (RAW 264.7 cells) was 45. For the same compound, the “Ratio to Control, tristetraprolin (M57422)” value (RAW 264.7 cells) was 90 and the “Ratio to Control, vimentin (X51438)” value (RAW 264.7 cells) was 2.0.
In the case of `CC[C@H](C)[C@H](N)C(=O)N[C@@H](CC(C)C)C(=O)N1CCC[C@H]1C(=O)N[C@@H](Cc1c[nH]c2ccccc12)C(=O)N[C@@H](CCCCN)C(=O)N[C@@H](Cc1c[nH]c2ccccc12)C(=O)N1CCC[C@H]1C(=O)N[C@@H](Cc1c[nH]c2ccccc12)C(=O)N[C@@H](Cc1c[nH]c2ccccc12)C(=O)N1CCC[C@H]1C(=O)N[C@@H](Cc1c[nH]c2ccccc12)C(=O)N[C@@H](CCCNC(=N)N)C(=O)N[C@@H](CCCNC(=N)N)C(N)=O` [SEQ ID NO: 2], the “Ratio Peptide:Unstimulated, cadherin, EGF LAG seven-pass. G-type receptor 2, flamingo (Drosophila) homolog” value [1] is reported as 0.42.
